What is called ED50 is the midpoint of the dose-response relation.

The chains behind the UniProt entries cited, without tags or fusion partners.
UniProt P20272, whole entry: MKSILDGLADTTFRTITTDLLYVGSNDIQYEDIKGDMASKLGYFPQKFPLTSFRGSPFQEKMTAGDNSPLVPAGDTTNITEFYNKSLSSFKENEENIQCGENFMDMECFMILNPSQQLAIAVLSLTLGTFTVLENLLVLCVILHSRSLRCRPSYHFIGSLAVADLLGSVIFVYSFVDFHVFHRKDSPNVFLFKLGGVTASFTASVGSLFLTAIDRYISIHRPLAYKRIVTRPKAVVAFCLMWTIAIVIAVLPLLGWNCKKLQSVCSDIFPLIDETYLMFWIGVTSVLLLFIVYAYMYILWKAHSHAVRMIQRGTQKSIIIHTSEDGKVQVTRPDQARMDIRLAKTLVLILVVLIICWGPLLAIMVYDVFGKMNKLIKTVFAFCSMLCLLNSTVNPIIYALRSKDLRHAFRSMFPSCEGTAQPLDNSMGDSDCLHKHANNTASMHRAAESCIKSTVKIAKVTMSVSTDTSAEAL

In ChEMBL document CHEMBL1148395, “Synthesis, biological properties, and molecular modeling investigations of novel 3,4-diarylpyrazolines as potent and selective CB(1) cannabinoid receptor antagonists” (J Med Chem, 2004) one finds ED50 data, which are given here for one compound.

This assay addresses Cannabinoid receptor 1 (Rattus norvegicus) (UniProt P20272). The assay can be described thus: In vivo effective dose to antagonise cannabinoid receptor 1 agonist (CP-55940) induced hypotension in rat upon peroral administration. The assay is classed as functional, organism-based.

The compound `Cc1c(C(=O)NN2CCCCC2)nn(-c2ccc(Cl)cc2Cl)c1-c1ccc(Cl)cc1` yielded an ED50 of 3.2 mg/kg.
